According to article PMC7253423, “Quassinoid analogs with enhanced efficacy for treatment of hematologic malignancies target the PI3Kγ isoform” (Communications Biology, 2020):
Several values for one entry are separate records, joined by “and”; a condition that tells them apart may be missing. Equal entries are not always repeated.

Columns and labels:
[1] = In vivo toxicity test, survival rate; set-up: species or system NOD/SCID mice; conditions: for survival event status per mouse (Fig 6i; 1 = event/death, 0 = censored): 10mg/kg
Procedure: To determine the toxicity of Brusatol, #15 and #26 compounds, 6-week-old male NOD.CB17-Prkdc^scid/J (NOD/SCID) mice (Jackson Labs, Bar Harbor, ME, USA; 4 mice per group) were intraperitoneally injected with a maximum dose of 10 mg/kg of Brusatol, #15 or #26 compound every other day (three times per week). The survival rate was recorded to monitor the tolerance of the compounds in these mice.

H929 cells = assay: Cell viability assay (CellTiter-Glo luminescence); assay type: cell-based, human; conditions: Fig 3a
Procedure: (§1) 5000 cells as indicated were cultured in 96-well plate with 100 μl of media. On the next day, Brusatol or associated analogs were added once to the cells without media change. After treatment, the cells were incubated with 100 μl buffer for 10 min at room temperature following the instructions of CellTiter-Glo kit (Promega, Madison, WI). Luminescence was detected using a multi-mode reader Cytation 5 (BioTek, Winooski, VT). Brusatol or its analogs are dissolved in 100% ethanol and diluted in 1 × PBS for treatment. Two independent experiments done in duplicates were performed.

MOLM14 cells = assay: Cell viability assay (CellTiter-Glo luminescence); assay type: cell-based, human; conditions: for Relative cell viability: Fig 3a; for relative cell viability (Fig 6e), replicates: fraction of 0 μM control
Procedure: as §1

LCL1 cells [2] = assay: Cell viability assay (CellTiter-Glo luminescence); assay type: cell-based, human
Procedure: as §1, with “On” for “5000 cells as indicated were cultured in 96-well plate with 100 μl of media. On”

LCL1 cells [3] = assay: Real-time PCR, mRNA expression; assay type: cell-based, human; conditions: Fig 2g
Procedure: (§2) Real-time PCR experiments were performed as previously described. The experiments were performed in triplicate.

Raji cells = assay: Real-time PCR, mRNA expression; assay type: cell-based, human; conditions: Fig 2f, experiments 1st-4th
Procedure: as §2

Q: Which “toxicity in vivo (survival)” value ([1]; 10 mg/kg intraperitoneally every other day, monitored 24 days, 4 mice per group) does the source give for Brusatol here?
A: obviously lethal for the majority of mice within the first 4 days

Q: What about the “survival event status per mouse (Fig 6i; 1 = event/death, 0 = censored)” value ([1]; Days Post-treatment 2) of the same substance?
A: 1

Q: What about the “survival event status per mouse (Fig 6i; 1 = event/death, 0 = censored)” value ([1]; Days Post-treatment 3) of the same substance?
A: 1

Q: And the “survival event status per mouse (Fig 6i; 1 = event/death, 0 = censored)” value ([1]; Days Post-treatment 24)?
A: 0

Q: What about the Relative cell viability (H929 cells; H929, Con. 0.000244141 μM) of the same substance?
A: 1.048 and 0.8831

Q: And the Relative cell viability (H929 cells; H929, Con. 0.000976563 μM)?
A: 1.073 and 1.077

Q: And the Relative cell viability (H929 cells; H929, Con. 0.00390625 μM)?
A: 1.16 and 1.049

Q: What about the Relative cell viability (H929 cells; H929, Con. 0.015625 μM) of the same substance?
A: 0.6265 and 0.5185

Q: And the Relative cell viability (H929 cells; H929, Con. 0.0625 μM)?
A: 0.2216 and 0.1683

Q: And the Relative cell viability (H929 cells; H929, Con. 0.25 μM)?
A: 0.07977 and 0.1061

Q: What about the Relative cell viability (H929 cells; H929, Con. 1 μM) of the same substance?
A: 0.06659 and 0.0561

Q: And the Relative cell viability (MOLM14 cells; MOLM14, Con. 0.000244141 μM)?
A: 1.093 and 0.9373

Q: What about the Relative cell viability (MOLM14 cells; MOLM14, Con. 0.000976563 μM) of the same substance?
A: 0.6464 and 0.5402

Q: And the “relative cell viability (Fig 6e), replicates” value (MOLM14 cells; MOLM14, Con. 0.00244141 μM)?
A: 1.084 and 0.9426

Q: And the Relative cell viability (MOLM14 cells; MOLM14, Con. 0.00390625 μM)?
A: 0.09731 and 0.09357

Q: What about the “relative cell viability (Fig 6e), replicates” value (MOLM14 cells; MOLM14, Con. 0.00976562 μM) of the same substance?
A: 1.067 and 0.836

Q: And the Relative cell viability (MOLM14 cells; MOLM14, Con. 0.015625 μM)?
A: 0.03685 and 0.03647

Q: What about the “relative cell viability (Fig 6e), replicates” value (MOLM14 cells; MOLM14, Con. 0.0390625 μM) of the same substance?
A: 0.4235 and 0.3524

Q: What about the Relative cell viability (MOLM14 cells; MOLM14, Con. 0.0625 μM) of the same substance?
A: 0.03245 and 0.03429

Q: What about the “relative cell viability (Fig 6e), replicates” value (MOLM14 cells; MOLM14, Con. 0.15625 μM) of the same substance?
A: 0.1035 and 0.1208

Q: And the Relative cell viability (MOLM14 cells; MOLM14, Con. 0.25 μM)?
A: 0.02602 and 0.02786

Q: What about the “relative cell viability (Fig 6e), replicates” value (MOLM14 cells; MOLM14, Con. 0.625 μM) of the same substance?
A: 0.03957 and 0.03909

Q: And the Relative cell viability (MOLM14 cells; MOLM14, Con. 1 μM)?
A: 0.02218 and 0.02021

Q: What about the “relative cell viability (Fig 6e), replicates” value (MOLM14 cells; MOLM14, Con. 2.5 μM) of the same substance?
A: 0.04357 and 0.03929

Q: What about the “relative cell viability (Fig 6e), replicates” value (MOLM14 cells; MOLM14, Con. 10 μM) of the same substance?
A: 0.05298 and 0.04635

Q: What about the Relative cell viability (LCL1 cells [2]; LCL1, Con. 0.000244141 μM, Fig 1c) of the same substance?
A: 1.239 and 1.152

Q: What about the Relative cell viability (LCL1 cells [2]; LCL1, Con. 0.000976563 μM, Fig 1c) of the same substance?
A: 1.178 and 1.161

Q: What about the Relative cell viability (LCL1 cells [2]; LCL1, Con. 0.00390625 μM, Fig 1c) of the same substance?
A: 0.4296 and 0.405

Q: And the Relative cell viability (LCL1 cells [2]; LCL1, Con. 0.015625 μM, Fig 1c)?
A: 0.2452 and 0.2178

Q: What about the Relative cell viability (LCL1 cells [2]; LCL1, Con. 0.0625 μM, Fig 1c) of the same substance?
A: 0.1961 and 0.1943

Q: What about the Relative cell viability (LCL1 cells [2]; LCL1, Con. 0.25 μM, Fig 1c) of the same substance?
A: 0.2021 and 0.1842

Q: And the Relative cell viability (LCL1 cells [2]; LCL1, Con. 1 μM, Fig 1c)?
A: 0.2333 and 0.2062

Q: And the Relative cell viability (LCL1 cells [2]; LCL1, relative to Control, Fig 1d / Fig 5a)?
A: 0.1749 and 0.2474

Q: What about the “AKT1 mRNA expression relative to Control” value (LCL1 cells [3]) of the same substance?
A: 0.6046

Q: What about the “ATF3 mRNA expression relative to Control” value (LCL1 cells [3]) of the same substance?
A: 0.5899

Q: And the “PIK3C2B mRNA expression relative to Control” value (LCL1 cells [3])?
A: 0.4852

Q: And the “PIK3CG mRNA expression relative to Control” value (LCL1 cells [3])?
A: 0.4647

Q: What about the “FOXO3 mRNA expression relative to Control” value (Raji cells) of the same substance?
A: 0.8069 and 1.138 and 1.051 and 0.8646

Q: And the “MYC mRNA expression relative to Control” value (Raji cells)?
A: 2.969 and 1.724

Q: And the “NME2 mRNA expression relative to Control” value (Raji cells)?
A: 0.459 and 0.8677 and 0.7393 and 0.5689

Q: And the “TP73 mRNA expression relative to Control” value (Raji cells)?
A: 1.114 and 1.008 and 1.162
